Series [1] relates to baboon antiserum to Structure (II)-ovine gamma-globulin conjugate. Nature of the series: Displacement of I^125-labeled synthetic peptide of Structure (II) from baboon antiserum to Structure (II)-ovine gamma-globulin. The series is classed as binding. The source says: The specificity of antibody response to a CG fragment-macromolecular carrier is represented by the instant experiment. […] Note that Human LH was ineffective for displacement of tracer antigen at doses up to 2.5 IU (international units).

Series [2] has as its system ovarian ascorbic acid. Briefly: Ovarian ascorbic acid depletion test (LH and HCG biological activity). The format is in vivo. As to conditions: for activity retained, of the unaltered hormone: diazo-coupled hormone, 35 (HCG) / 26 (HLH) groups/molecule. As for the experimental part: (§1) All preparations, excepting the OLH, were prepared in the inventor's laboratory.
Following dialysis, happen-hormones were lyophilized and stored at 4° C. Diazo-HCG (35 groups/molecule) and HLH (26 groups/molecule) were bioassayed by the ovarian ascorbic acid depletion method and found to retain 62 and 85 percent respectively of the activity of the unaltered hormones from which they were derived. None of the other hormones was assayed for biological activity.

Series [3] concerns female baboons. Briefly: Effects on menstrual cycle / ovulation in baboons immunized with diazo-gonadotropins. The format is in vivo, baboon. As for the experimental part:
(§2) Female baboons received their initial immunization on days 3-5 of the menstrual cycle and the second and third injections one week apart. The fourth injection was given 2-3 weeks after the third. A few animals received a fifth injection at 70-80 days after the first injections. All antigens were administered subcutaneously in a suspension of mannide monooleate or peanut oil. Doses of antigens for each injection varied between 3 and 5 mg. Injection sites were inspected daily for 5 days after each immunization for local reactions.
(§3) Daily 24-hour urine specimens and frequent serum samples were collected during at least one menstrual cycle prior to immunizations and following immunizations until the effects of treatment were assessed. Urinary LH, urinary estrogens and plasma progestins were measured. […] Sera were reacted with both the unaltered immunizing hormone and unaltered baboon LH for antibody detection. A purified baboon LH preparation (1.9×NIE-LH-S1) was used as a tracer antigen. Antigen-antibody complexes were precipitated with ovine anti-baboon gamma globulin after a 24-hr. incubation at 4° C. Antibody levels were expressed as pg of labelled hormone bound.
The effects of immunization upon the event of the menstrual cycle were determined by observing changes in sex skin turgescence and levels of pituitary and/or ovarian hormones. Based on these parameters, the delay or retardation of ovulation from the expected time, as judged by the control cycle, was calculated. […] A third animal immunized with HLH was delayed a calculated 86 days. Ovine LH immunizations produced an 88 day delay in ovulation.

The subject of series [4] is baboon LH. Briefly: Antibody production and cross-reactivity with baboon LH in baboons immunized with diazo-gonadotropins (I^131 hormone binding). As to conditions: for cross-reactivity of induced antibodies with baboon LH: antisera at peak levels, immunized baboons. The format is in vivo. As for the experimental part:
as §2, §3
Antisera were fractionated by gel filtration on Sephadex G-200 according to the procedure of Fahey and Terry (at p. 36, Experimental Immunology, F. A. Davis Co., Philadelphia, Pa., 1967, incorporated by reference to the extent necessary to understand the invention) to determine the proportion of IgM and IgG antibodies in the baboon sera. Since the IgG fraction in this procedure contained a portion of IgA and IgD antibodies, only IgM and total titers were determined.

The nature of series [5]: Local reactions and lymphocyte transformation test in women immunized with Ha-HCG. The format is in vivo, human. As for the experimental part:
(§4) Ten mg. of the Ha-HCG antigen were dissolved in 1.0 ml. of saline and emulsified with an equal volume of oil. Prior to injection, scratch tests to antigen and, vehicle were performed. Immunizations were begun in the luteal phase of the treatment cycle to prevent super ovulation from the administered HCG. Four injections at two week intervals were given to the subject. The first two of these were administered in oil subcutaneously (1.0 ml in each upper arm); the final two injections were given in saline only via the intradermal route. Following each injection, blood pressure readings were taken and the subject observed for allergic reactions.
The subject was tested for delayed hypertensivity before immunization and at two week intervals until the injection schedule was completed by an in vitro lymphocyte transformation test.

The subject of series [6] is HCG. Briefly: Antibody titers to HCG in women immunized with Ha-HCG. The format is in vivo, human. As for the experimental part: Hormone was altered by coupling with a happen (sulfanilazo). This method couples the happen molecules to the protein via the amino group of the aliphatic or aromatic portion of the hapten.
as §4
(§5) Blood samples were collected at weekly intervals beginning two weeks after the initial injection to test for the presence of humoral and cellular antibodies. Following completion of the immunization schedule, blood samples were collected in the same manner as in the control cycle to assess effects of immunization on hormonal patterns of the menstrual cycle. […] A third cycle was similarly studied six months after initial immunization. Upon completion of the study, physical and pelvic examinations and laboratory evaluations were repeated.

The subject of series [7] is LH. Nature of the series: Serum pituitary and gonadal hormone patterns (LH, FSH, estrone, estradiol, progesterone) in women immunized with Ha-HCG. The format is in vivo, human. As for the experimental part: Serum determinations of FSH, LH estrone, estradiol and progesterone were performed. These studies indicated an ovulatory pattern.
as §5
Serum samples from the control and post-treatment cycles were assayed for FSH, LH, estrone, estradiol and progesterone.

Series [8] relates to ovary. Briefly: Ovarian augmentation assay (FSH biological potency). The series is classed as in vivo. As to conditions: partially purified preparation from human pituitaries. As for the experimental part:
as §1

Where [9] appears, read: individual immunized female baboons.
Where [10] appears, read: cycle approximately six months from the first immunization.

Entries after “also recorded” stand apart in the source; their conditions may differ.

In the case of “HCG: highly purified preparation from human pregnancy urine”, the “dose displacing tracer antigen” value in series [1] is recorded as 20 mIU. Also, in series [2] (highly purified preparation from human pregnancy urine), the biological potency is 13,200 IU/mg. (2nd IRP-HCG).
As for “Diazo-human FSH: human FSH coupled with diazotized sulfanilic acid hapten”, in series [3] (setting [9]), the “interruption or delay of ovulation (in cycles)” value (from here on “interruption or delay”) is recorded as “delayed for only one cycle”. For the same substance, the “antigenicity in the baboon” value in series [4] (in vivo) is listed as “weakly antigenic”.
With “Ha-HCG: purified HCG coupled with sulfanilazo hapten”, the lymphocyte transformation tests entry in series [5] (plasma samples) was “negative”. Further, the “local reaction after initial injection in mannide monooleate” value in series [5] (subcutaneous) is “some itching and swelling”. Also, the antibody titers entry in series [6] (setting [10]) is “Significant antibody titers; also recorded: no significant antibody titers”. In series [6] (one woman per Example, 10 mg per injection, two week intervals), the “antibody titers to HCG first detected” value was “after two injections; also recorded: after three injections”. In series [7] (setting [10]), the “LH pattern (midcycle elevation)” value is given as “a small midcycle elevation; also recorded: no significant midcycle elevation”. Besides, the progesterone pattern result in series [7] (post-treatment cycle) is on record as “no ovulatory preogesterone pattern”. Besides, the “midcycle LH elevation” value in series [7] (post-treatment cycle, one woman per Example II-VII) is listed as “Very small midcycle elevations; also recorded: no midcycle elevations; also recorded: a very small midcycle elevation; also recorded: no peaks; also recorded: no peaks nor midcycle elevation”.
In the case of “HLH: partially purified preparation from human pituitaries”, in series [1], the “dose ineffective for displacement of tracer antigen” value is listed as above 2.5 IU. In series [2] (gonadotropin preparation), the biological potency was 2.5 units per mg. (NIH-LH-SI).
For the substance “Diazo-HLH: HLH coupled with diazotized sulfanilic acid hapten”, in series [3] (setting [9]), the “calculated delay in ovulation” value is 86 days and the “interruption or delay” value was “two menstrual cycles”. The “duration of the cycle of immunization (no ovulation)” value in series [3] (one animal) was 85 days. Moreover, the “cross-reactivity of induced antibodies with baboon LH” value in series [4] is on record as “relatively little reaction”. Further, the “antibody levels elevated until, from the first detection of antibodies” value in series [4] (one animal) was 289 days. Also, the “activity retained, of the unaltered hormone” value in series [2] was found to be 85%.
Take “HFSH: partially purified preparation from human pituitaries”: in series [8], the biological potency was 86 units per mg. (NIH-FSR-SI).
On to “Diazo-HCG: HCG coupled with diazotized sulfanilic acid hapten”, for which the “interruption or delay” value in series [3] (setting [9]) is “no interruption in ovulation; also recorded: two menstrual cycles”. Moreover, in series [4], the “cross-reactivity of induced antibodies with baboon LH” value was “relatively little reaction”. The “activity retained, of the unaltered hormone” value in series [2] is reported as 62%.
